Reference: patent US7527971B2, “Adult stem cell lines” (Vitro Diagnostics, Inc., priority 2004, dated 2009)

Test system: VIT4-G9 cell line

**Q.** `CC1=C2C[C@H]3[C@@H](CC=C4C[C@@H](O)CC[C@@]43C)[C@@H]2CC[C@]12O[C@@H]1C[C@H](C)CN[C@H]1[C@H]2C` [cyclopamine, Cyclopamine] was tested. Which VIT4-G9 growth did it give?
**A.** blocked
